Assay results published in PubChem BioAssay (NCI).
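Cultured in 96-well plates, cells were exposed to test compound for 48 hours across five concentrations. GI50: concentration for 50% inhibition of growth.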

How the values were obtained:
Experiment in all cases: NCI tumour cell line growth inhibition, 48 h; in the data active means GI50 below about 0.43 µM; inactive means the rest
U251 CNS = system: U251 CNS
SK-MEL-2 melanoma = system: SK-MEL-2 melanoma
T-47D breast = system: T-47D breast
SK-MEL-28 melanoma = system: SK-MEL-28 melanoma
OVCAR-3 ovarian = system: OVCAR-3 ovarian
MALME-3M melanoma = system: MALME-3M melanoma
UACC-62 melanoma = system: UACC-62 melanoma
OVCAR-4 ovarian = system: OVCAR-4 ovarian
SK-OV-3 ovarian = system: SK-OV-3 ovarian
HL-60(TB) leukemia = system: HL-60(TB) leukemia
MDA-N = system: MDA-N
PC-3 prostate = system: PC-3 prostate
MDA-MB-231 breast = system: MDA-MB-231 breast
HT29 colon = system: HT29 colon
OVCAR-5 ovarian = system: OVCAR-5 ovarian
HCT-15 colon = system: HCT-15 colon
EKVX NSCLC = system: EKVX NSCLC
SK-MEL-5 melanoma = system: SK-MEL-5 melanoma
NCI-H522 lung = system: NCI-H522 lung
SN12C renal = system: SN12C renal
COLO 205 colon = system: COLO 205 colon
M14 melanoma = system: M14 melanoma
SF-268 CNS = system: SF-268 CNS
HS 578T breast = system: HS 578T breast
HCT-116 colon = system: HCT-116 colon
OVCAR-8 ovarian = system: OVCAR-8 ovarian
K-562 leukemia = system: K-562 leukemia
HOP-92 NSCLC = system: HOP-92 NSCLC
MDA-MB-435 = system: MDA-MB-435
DU-145 prostate = system: DU-145 prostate
CAKI-1 renal = system: CAKI-1 renal
HOP-62 NSCLC = system: HOP-62 NSCLC
RPMI-8226 leukemia = system: RPMI-8226 leukemia
SF-539 CNS = system: SF-539 CNS
MOLT-4 leukemia = system: MOLT-4 leukemia
NCI-H23 lung = system: NCI-H23 lung
A549 NSCLC = system: A549 NSCLC
SW-620 colon = system: SW-620 colon
SNB-19 CNS = system: SNB-19 CNS
UACC-257 melanoma = system: UACC-257 melanoma
UO-31 renal = system: UO-31 renal
ACHN renal = system: ACHN renal
BT-549 breast = system: BT-549 breast
NCI/ADR-RES ovarian = system: NCI/ADR-RES ovarian
786-0 renal = system: 786-0 renal
A498 renal = system: A498 renal
TK-10 renal = system: TK-10 renal
KM12 colon = system: KM12 colon
SR leukemia = system: SR leukemia
SF-295 CNS = system: SF-295 CNS
IGROV1 ovarian = system: IGROV1 ovarian
NCI-H226 lung = system: NCI-H226 lung

Measured: GI50

CN(C(=O)[C@@H](N)c1ccccc1)[C@H]1CCCC[C@@H]1N1CCCC1
inactive: U251 CNS > 100 µM | SK-MEL-2 melanoma > 100 µM | T-47D breast > 100 µM | SK-MEL-28 melanoma > 100 µM | OVCAR-3 ovarian > 100 µM | MALME-3M melanoma > 100 µM | UACC-62 melanoma > 100 µM | OVCAR-4 ovarian > 100 µM | SK-OV-3 ovarian > 100 µM | HL-60(TB) leukemia > 100 µM | MDA-N > 100 µM | PC-3 prostate > 100 µM | MDA-MB-231 breast > 100 µM | HT29 colon > 100 µM | OVCAR-5 ovarian > 100 µM | HCT-15 colon > 100 µM | EKVX NSCLC > 100 µM | SK-MEL-5 melanoma > 100 µM | NCI-H522 lung > 100 µM | SN12C renal > 100 µM | COLO 205 colon > 100 µM | M14 melanoma > 100 µM | SF-268 CNS > 100 µM | HS 578T breast > 100 µM | HCT-116 colon > 100 µM | OVCAR-8 ovarian > 100 µM | K-562 leukemia > 100 µM | HOP-92 NSCLC 9.37 µM | MDA-MB-435 = > 100 µM | DU-145 prostate > 100 µM | CAKI-1 renal > 100 µM | HOP-62 NSCLC > 100 µM | RPMI-8226 leukemia > 100 µM | SF-539 CNS > 100 µM | MOLT-4 leukemia > 100 µM | NCI-H23 lung > 100 µM | A549 NSCLC > 100 µM | SW-620 colon > 100 µM | SNB-19 CNS > 100 µM | UACC-257 melanoma > 100 µM | UO-31 renal > 100 µM | ACHN renal > 100 µM | BT-549 breast > 100 µM | NCI/ADR-RES ovarian > 100 µM | 786-0 renal > 100 µM | A498 renal > 100 µM | TK-10 renal > 100 µM | KM12 colon > 100 µM | SR leukemia 5.99 µM | SF-295 CNS > 100 µM | IGROV1 ovarian > 100 µM | NCI-H226 lung > 100 µM
